Earlier results as cited in US20260076959A1, “COMBINATION PRODUCT, SALT, AND USE THEREOF IN TREATING NEURODEGENERATIVE DISEASES OR DISORDERS” (SHANGHAI HENLIUS BIOTECH, INC., priority 2023, published 2026).

Tested on: ALS patients
Conditions: cited from earlier work

Nc1nc2ccc(OC(F)(F)F)cc2s1 [riluzole]
extension of patients' survival: 3 months
